Assay results published in ChEMBL document CHEMBL1124008, “Synthesis and antifolate activity of 5-methyl-5,10-dideaza analogues of aminopterin and folic acid and an alternative synthesis of 5,10-dideazatetrahydrofolic acid, a potent inhibitor of glycinamide ribonucleotide formyltransferase” (J Med Chem, 1988).

Target: T1, Trifunctional purine biosynthetic protein adenosine-3 (Mus musculus, UniProt Q64737)
T1 sequence (Q64737 whole entry): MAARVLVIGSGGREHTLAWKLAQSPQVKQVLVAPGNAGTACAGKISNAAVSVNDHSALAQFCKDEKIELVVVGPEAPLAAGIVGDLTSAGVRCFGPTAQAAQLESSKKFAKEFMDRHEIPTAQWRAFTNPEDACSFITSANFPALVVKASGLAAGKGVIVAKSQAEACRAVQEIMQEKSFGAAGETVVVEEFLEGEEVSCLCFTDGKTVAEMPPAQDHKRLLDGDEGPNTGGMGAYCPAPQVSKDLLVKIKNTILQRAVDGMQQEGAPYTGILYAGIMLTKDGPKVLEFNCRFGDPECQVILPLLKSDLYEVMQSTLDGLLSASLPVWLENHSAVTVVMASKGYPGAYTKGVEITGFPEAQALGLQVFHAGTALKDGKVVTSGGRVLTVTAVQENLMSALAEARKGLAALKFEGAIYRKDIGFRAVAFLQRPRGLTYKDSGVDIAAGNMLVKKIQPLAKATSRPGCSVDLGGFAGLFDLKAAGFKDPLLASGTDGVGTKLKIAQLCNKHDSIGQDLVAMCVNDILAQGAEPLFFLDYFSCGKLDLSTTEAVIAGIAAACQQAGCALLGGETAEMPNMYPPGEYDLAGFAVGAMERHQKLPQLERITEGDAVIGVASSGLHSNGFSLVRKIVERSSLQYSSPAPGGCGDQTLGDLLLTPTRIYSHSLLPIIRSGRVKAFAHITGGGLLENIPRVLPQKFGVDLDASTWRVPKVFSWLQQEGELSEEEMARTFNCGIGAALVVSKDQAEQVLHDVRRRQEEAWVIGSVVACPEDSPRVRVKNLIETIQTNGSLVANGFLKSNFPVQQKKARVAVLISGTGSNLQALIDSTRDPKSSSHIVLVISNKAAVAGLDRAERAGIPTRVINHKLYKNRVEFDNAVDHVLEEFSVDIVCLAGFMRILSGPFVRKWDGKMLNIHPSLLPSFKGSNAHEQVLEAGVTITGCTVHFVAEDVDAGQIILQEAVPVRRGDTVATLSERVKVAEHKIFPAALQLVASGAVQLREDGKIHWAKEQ
Assay: Inhibition of GAR transformylase from mammalian L1210 cells
Format: cell-based

IC50: > 20 µM
Structure (SMILES): CN(Cc1cnc2nc(N)nc(N)c2n1)c1ccc(C(=O)N[C@@H](CCC(=O)O)C(=O)O)cc1 [METHOTREXATE]
